Assay results taken from PubChem BioAssay AID1918969 (ICCB-Longwood Screening Facility, Harvard Medical School, 2023).
Where “and” joins values, the source holds several entries; their conditions need not be identical. Equal entries are not always repeated. The entries are a selection whose mix differs from that of the whole data set. Calls of active or inactive are those of the source. Cut-off read from the data, not from the text of the source: active = inhibition above about 27% (passing the limit was not always enough); inactive = the rest.

The molecules below were run on HCMV UL50-UL53 nuclear egress complex (human cytomegalovirus) (assay: HCMV nuclear egress complex disruptors – biochemical, HTRF (AID 1918969)). Conditions: HTRF UL50-UL53 interaction, normalized percent inhibition; hits give high values; concentration not given here.
In the case of `CN(CCCl)CCCl`, the inhibition was inactive: 21% and inactive: 2%.
